The source of these data is patent publication US20140037685A1 (priority 2012, published 2014).

Experiment [1] has as its system C57BL/6 macrophages from different cathepsin knockout mice. In words: Cell death and protein degradation in cathepsin-deficient macrophages.
Experiment [2] relates to Nalp3/Asc/caspase-1-deficient C57BL/6 macrophages. Put plainly: Cell death (PI) and Western blot in inflammasome-deficient macrophages.

In the case of `COC(=O)[C@H](CC(C)C)NC(=O)[C@@H](N)CC(C)C` [LLOMe, Leu-Leu-OMe], the “Impact of cathepsin B, L and S deficiency on inducer-mediated protein degradation and cell death” value in experiment [1] (cathepsin B, L and S-deficient macrophages) is “no impact”. Moreover, the “Impact of cathepsin C deficiency on inducer-mediated protein degradation and cell death” value in experiment [1] (cathepsin C-deficient macrophages) is given as “prevented”. For the same compound, the “Impact of Nlrp3 or Asc-deficiency on the inducer-mediated drop in pro-caspase-1 and IL-1β levels” value in experiment [2] (LPS-primed deficient vs wild-type macrophages) was “no impact”. Moreover, the “Impact of Nlrp3 or Asc-deficiency on inducer-mediated cell death” value in experiment [2] (PI assay) is recorded as “failed to prevent”.

`CO[C@@H]1C[C@@H](C[C@H]2CC[C@H](C)[C@H]([C@@H](C)C(=O)O)O2)O[C@]2(O[C@](C)([C@H]3CC[C@@](C)([C@@H]4O[C@@H]([C@H]5O[C@@](O)(CO)[C@H](C)C[C@@H]5C)C[C@@H]4C)O3)C[C@H]2C)[C@@H]1C` [nigericin, Nigericin]: in experiment [2] (LPS-primed macrophages, nigericin 2 hours), the “Impact of Nlrp3, Asc, and caspase-1-deficiency on inducer-mediated cell death and IL-1β processing” value is on record as “prevented”. In addition, the “Impact of Nlrp3, Asc, and caspase-1-deficiency on the drop in pro-IL18” value in experiment [2] (nigericin-treated macrophages) is “prevented the drop in pro-IL18”.
